Assay results from article PMC3931418 (Nature, 2014).

Assays:
[1] = target: δ-OR WT (HEK293) (Homo sapiens, UniProt P41143); format: binding
[2] = target: δ-OR N131A (HEK293) (Homo sapiens, UniProt P41143, N131A); format: binding

## DADLE
[1]
  effect of NaCl on binding affinity: reduced the affinity
[2]
  binding affinity: increased
